According to patent publication US10759777B2, “Carbazole-containing amides, carbamates, and ureas as cryptochrome modulators” (Synchronicity Pharma, Inc., priority 2014, dated 2020):
Read-outs that look alike come from different tables or passages of the source.

Legend:
[1] = system: core clock genes Per2, Bmal1, Cry2 in liver; assay: Four day study, liver core clock gene mRNA in ICR mice; assay type: in vivo, mouse; conditions: 50 mg/kg PO BID 4 days
Method: Male ICR mice (weighing 30-35 g), obtained from Charles River Laboratories (Hollister, Calif.), were used for the experiment following at least 3 days of acclimation. Mice were dosed with vehicle (WFI or 10% Kolliphor) or compound (50 mg/kg, dose volume 5 mL/kg, PO) for 4 days BID (twice a day), beginning in the afternoon of the first day. The last dose of compound or vehicle was administered on the morning of harvest. On the day of harvest (6 hours following the final dose), mice were euthanized by CO2 asphyxiation and 50 mg of liver tissue was excised and placed in a tube containing 500 μl of RNA later.
E.Z.N.A.® HP Total RNA Isolation Kits (R6812-01 and the protocol described in the Manual, Revised 2010) were utilized to prepare and isolate RNA from the liver samples. To prepare the RNA samples, 10-30 mg of sample was removed from RNA-Later and placed in a 1.5 ml microfuge tube. GTC lysis buffer (700 μl) was added to the tissue, which was homogenized with a rotor-stator homogenizer (e.g. Tissue-Tearor, Model #985370 BioSpec Products with 4.5 mm probe, Cat. #985370-04), and then centrifuged at full speed (≥13,000×g) for 5 minutes. The cleared supernatant was transferred by pipetting to a DNA Clearance Column Pre-inserted in a 2 mL Collection Tube. The assembled column was centrifuged at 13,000×g for 1 minute, and the flow-through was saved. An equal volume (700 μl) of 70% ethanol was added to the lysate and mixed. The sample was then applied to a HiBind RNA spin column placed into a 2 ml collection tube, which was centrifuged at 10,000×g for 60 seconds at room temperature. […]
RediPlate 96 RiboGreen RNA Quantification Kit (Invitrogen) RediPlate standard curve was prepared by transferring 20 l reconstituted RNA standard to a RediPlate well reconstituted in 180 l RediPlate TE buffer. […] After transferring 5 l to RediPlate well reconstituted in 195 l TE buffer and incubating 10 min. at RT, Fluorescence Intensity of wells with standards and samples were read in a Tecan M200 with Excitation set at 480 nm and Emission set at 520 nm with the gain set to ˜70%. […]

[2] = system: db/db mouse model of type II diabetes
[3] = system: C57/Bl6J DIO mice; assay: Compound 72 in diet-induced obesity (DIO) mouse model; assay type: in vivo; conditions: 30 mg/kg PO QD 7 days
Source text: (§1) Male C57/Bl6J DIO mice were obtained from The Jackson Laboratory (Sacramento, Calif.). […] Animals were accustomed to these conditions for at least 2 weeks before experimentation and used at approximately 24 weeks of age.
(§2) Significance was accepted when p<0.05.

[4] = system: C57/Bl6J DIO mice; assay: Increasing dosages of Compound 72 in diet-induced obesity (DIO) mouse model; assay type: in vivo; conditions: 30 mg/kg PO QD 7 days
Source text: as §1, §2
Male C57/Bl6J DIO mice were obtained from The Jackson Laboratory (Sacramento, Calif.). […] Animals were accustomed to these conditions for at least 2 weeks before experimentation and used at approximately 26 weeks of age.

Structure (SMILES)	liver Per2 expression ([1]; ZT6)	Cry2 transcripts ([1]; liver)	increase in Bmal1 mRNA at ZT6 ([1]; liver)	liver exposure below the Per2 EC50 value ([2]; 30 mg/kg)	reduction of glucose AUC from vehicle ([2]; 30 mg/kg)	glucose AUC from OGTT ([2]; 30 mg/kg PO QD 7 days)	liver exposure higher than the Per2 EC50 value ([2]; 100 mg/kg)	reduction of HOMA-IR compared to vehicle ([2]; 100 mg/kg)	reduction of glucose AUC from vehicle ([2]; 100 mg/kg)	glucose AUC from OGTT ([2]; 100 mg/kg PO QD 7 days)	reduction of glucose AUC from vehicle ([2]; 300 mg/kg)	glucose AUC from OGTT ([2]; 300 mg/kg PO QD 7 days)	glucose levels during the OGTT ([2]; 30 and 100 mg/kg, no increased effect at 300 mg/kg)	glucose AUC from OGTT [3]	glucose AUC from OGTT [4]
O=C1C(F)CCN1CC(O)Cn1c2ccc(F)cc2c2cc(F)ccc21 (stereo not shown) [Compound 9, 1-(3-(3,6-difluoro-9H-carbazol-9-yl)-2-hydroxypropyl)-3-fluoropyrrolidin-2-one]	suppression	decrease	4 fold	around 1.6 fold	21%	44442+/−3895 units	2.2 fold	60%	40%	33643+/−4822 units	40%	33650+/−4688 units	dose dependent reduction		
CN(CCOc1ccc(CC2SC(=O)NC2=O)cc1)c1ccccn1 (stereo not shown) [Rosiglitazone, reference compound]						11502+/−2118 units								11500+/−1104 units	9858+/−1281 units
